The source of these data is ChEMBL document CHEMBL3259517, “Synthesis and evaluation of phosphorus containing, specific CDK9/CycT1 inhibitors” (J Med Chem, 2014).

Chains of the proteins cited; added tags and fusions are not shown. Residues count along the entry.
UniProt P11802, 2-303 limits assumed: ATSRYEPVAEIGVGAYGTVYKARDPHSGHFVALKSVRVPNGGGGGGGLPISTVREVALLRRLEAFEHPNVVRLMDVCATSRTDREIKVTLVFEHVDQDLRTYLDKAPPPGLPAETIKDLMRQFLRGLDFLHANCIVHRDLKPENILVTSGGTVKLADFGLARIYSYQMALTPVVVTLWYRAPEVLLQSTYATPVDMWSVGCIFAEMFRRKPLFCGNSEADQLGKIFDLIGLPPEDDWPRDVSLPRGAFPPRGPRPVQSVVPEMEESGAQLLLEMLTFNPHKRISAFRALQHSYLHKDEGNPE
UniProt P24385, whole entry partner: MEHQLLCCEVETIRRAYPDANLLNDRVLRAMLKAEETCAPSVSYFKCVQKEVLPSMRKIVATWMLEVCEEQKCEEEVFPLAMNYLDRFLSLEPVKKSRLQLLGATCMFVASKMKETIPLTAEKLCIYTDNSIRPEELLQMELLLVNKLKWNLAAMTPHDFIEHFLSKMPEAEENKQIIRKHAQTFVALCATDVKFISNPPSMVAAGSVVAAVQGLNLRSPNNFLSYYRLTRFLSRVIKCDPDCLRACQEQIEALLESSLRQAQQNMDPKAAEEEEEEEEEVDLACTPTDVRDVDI
UniProt P24864, whole entry: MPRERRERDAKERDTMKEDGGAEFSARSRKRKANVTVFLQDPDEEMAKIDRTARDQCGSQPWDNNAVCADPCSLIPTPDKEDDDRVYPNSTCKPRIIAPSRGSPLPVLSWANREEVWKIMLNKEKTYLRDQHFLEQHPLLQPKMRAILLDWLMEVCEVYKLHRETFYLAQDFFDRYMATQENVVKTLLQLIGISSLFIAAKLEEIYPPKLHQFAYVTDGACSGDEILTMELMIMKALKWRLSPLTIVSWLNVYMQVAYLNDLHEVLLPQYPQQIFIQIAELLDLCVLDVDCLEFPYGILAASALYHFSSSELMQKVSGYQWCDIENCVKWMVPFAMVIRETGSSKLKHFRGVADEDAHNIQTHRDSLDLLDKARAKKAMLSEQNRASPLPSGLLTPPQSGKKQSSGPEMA

Molecules are shown by their SMILES.

The target of test [1] is Cyclin-dependent kinase 4/cyclin D1 (Homo sapiens) (UniProt P11802+P24385). Put plainly: Inhibition of CDK4/CycD1 (unknown origin) using FAM labeled peptide as substrate at 10 uM by IMAP FAM FP assay. The format is protein-complex assay. The method, boiled down:
(§1)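 Run by contract partners as an IMAP fluorescence polarization assay. […] Enzyme amount was set to give 50% substrate turnover. Compounds were added in DMSO, IMAP binding solution added after the kinase step, then FP read.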

The target in test [2] is Cyclin-dependent kinase 2/cyclin E1 (Homo sapiens) (UniProt P24864+P24941). Nature of the test: Inhibition of CDK2/CycE (unknown origin) using FAM labeled peptide as substrate at 10 uM by IMAP FAM FP assay. In kind it is protein-complex assay. In a few lines: as §1

For the compound `CCCP(=O)(Oc1cc(Nc2cc(-c3ccccc3OC)ncn2)ccc1C)OC(C)C` (stereo not drawn), the inhibition in test [1] is 21%; in test [2] it was 6%.

In the case of `CCOP(=O)(CC)Oc1cc(Nc2cc(-c3ccccc3OC)ncn2)ccc1C` (stereo not drawn), the inhibition came to 13% in test [1] and 1% in test [2].

With `CCCP(=O)(O)Oc1cc(Nc2cc(-c3ccccc3OC)ncn2)ccc1C`, the figures for the inhibition in test [1] and in test [2] were 46% and 34%, respectively.

For `CCCP(=O)(Nc1cc(Nc2cc(-c3ccccc3OC)ncn2)ccc1C)OC(C)C` (stereo not drawn), the values for the inhibition in test [1] and in test [2] were 2% and 32%, respectively.

One may read the inhibition as the drop in the measured response relative to a control, in per cent. Lower therefore signals little suppression.
